Results on two molecules are retold here after patent US20080318845A1, “Selective Vpac2 Receptor Peptide Agonists” (priority 2004, published 2008).

Sequences of proteins named here, by UniProt entry; tags and fusion partners are left off. Residues count along the entry.
UniProt P35000, 23-437: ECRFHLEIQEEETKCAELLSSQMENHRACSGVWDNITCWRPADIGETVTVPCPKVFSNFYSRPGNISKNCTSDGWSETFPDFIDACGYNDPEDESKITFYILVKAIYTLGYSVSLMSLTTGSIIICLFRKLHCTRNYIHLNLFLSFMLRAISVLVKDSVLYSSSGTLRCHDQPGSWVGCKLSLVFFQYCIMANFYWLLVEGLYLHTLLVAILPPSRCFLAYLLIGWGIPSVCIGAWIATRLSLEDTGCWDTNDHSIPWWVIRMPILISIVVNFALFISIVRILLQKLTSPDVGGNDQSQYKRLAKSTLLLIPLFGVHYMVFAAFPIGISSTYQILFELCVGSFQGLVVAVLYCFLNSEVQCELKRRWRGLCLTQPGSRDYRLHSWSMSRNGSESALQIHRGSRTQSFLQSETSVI

One assay addresses rat VPAC2 receptor (rat) (UniProt P35000). The assay can be described thus: cell-based or functional assay.
Another assay addresses T1, human VPAC2 receptor (human, UniProt P41587 24-438).
T1 construct: whole, on cells; stably expressed in a CHO-S cell line
T1 sequence (looked up): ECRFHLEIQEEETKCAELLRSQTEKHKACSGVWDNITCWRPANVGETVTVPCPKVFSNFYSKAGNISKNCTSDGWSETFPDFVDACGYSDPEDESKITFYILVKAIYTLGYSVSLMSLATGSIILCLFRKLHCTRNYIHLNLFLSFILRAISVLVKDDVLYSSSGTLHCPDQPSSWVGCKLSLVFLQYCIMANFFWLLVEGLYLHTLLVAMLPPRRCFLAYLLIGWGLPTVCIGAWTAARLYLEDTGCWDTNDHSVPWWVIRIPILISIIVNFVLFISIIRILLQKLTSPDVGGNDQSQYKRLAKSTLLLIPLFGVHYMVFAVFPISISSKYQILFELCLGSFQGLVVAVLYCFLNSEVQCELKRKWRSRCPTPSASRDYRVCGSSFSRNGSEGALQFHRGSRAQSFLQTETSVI
The assay can be described thus: filter binding on membranes, displacement of 125I-VIP. A general note: In a radioligand displacement assay an active substance lowers the binding of a labelled ligand.

In the assay with rat VPAC2 receptor (rat), vasoactive intestinal peptide (VIP) returned an EC50, cAMP generation (DiscoveRx) of 0.79 nM.

B1: pituitary adenylate cyclase-activating polypeptide PACAP-27 (peptide)
peptide: HSDGIFTDSYSRYRKQMAVKKYLAAVL
modifications: C-terminal amide (-NH2)
notes: 27 amino acid peptide with amidated carboxyl
In general, IC50 refers to the concentration that inhibits the measured activity by half. A higher IC50 goes with a need for much substance. B1 registered an IC50 in the assay with human VPAC2 receptor of 2.52 nM.
